Measured values published in PubChem BioAssay AID1044 (The Scripps Research Institute Molecular Screening Center, 2008).
The entries are a selection whose mix differs from that of the whole data set. The source made the active and inactive calls. No stated cut-off is given here; in the data, active means activation above about 80%; inactive means the rest.

The chains behind the UniProt entries cited, without tags or fusion partners.
UniProt P21453, whole entry: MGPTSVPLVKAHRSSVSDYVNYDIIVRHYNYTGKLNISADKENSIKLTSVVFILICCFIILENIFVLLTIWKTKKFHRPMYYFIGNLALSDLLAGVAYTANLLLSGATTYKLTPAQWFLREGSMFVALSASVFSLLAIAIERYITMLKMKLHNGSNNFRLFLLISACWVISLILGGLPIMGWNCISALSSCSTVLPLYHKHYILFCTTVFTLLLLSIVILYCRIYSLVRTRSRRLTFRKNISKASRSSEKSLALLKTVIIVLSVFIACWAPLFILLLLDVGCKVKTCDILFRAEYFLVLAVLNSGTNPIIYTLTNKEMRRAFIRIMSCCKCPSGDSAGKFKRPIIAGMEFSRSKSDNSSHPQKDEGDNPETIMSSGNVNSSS

What follows are compounds tested against Sphingosine 1-phosphate receptor 1 (Homo sapiens) (UniProt P21453) (assay: S1P1 (human) receptor agonism (AID 1044)). Details: S1P1 agonist cell-based reporter assay; at 4.5 µM; hits give high values.

Row | SMILES | activation
1 | O=[N+]([O-])C1([N+](=O)[O-])COCOC1 | inactive: -5.25%
